Source: patent publication US10350189B2, “Method for transnasal delivery of blood-brain barrier permeation agent and therapeutic agent” (priority 2015, dated 2019)

Tested on: BBB of the rat test subjects
Experiment: BBB permeability by Evans Blue concentration in brain after intranasal topical application to the SPG
Format: in vivo
Settings: transnasal rivastigmine, Evans Blue IV
Method: Delivery of a cholinesterase inhibitor at a low dosage is be effective for permeabilizing the BBB. By way of illustration, a rat model was used to test certain embodiments of the present method. In this experiment, normal saline solution (0.90% w/v NaCl in water) was used as a control, and three different concentrations of a cholinesterase inhibitor (rivastigmine) were administered transnasally to permeabilize the BBB of the rat test subjects. Then, to test permeabilization, a solution of Evans Blue dye (molecular weight=960.81 kDa; available from Sigma-Aldrich) was administered intravenously, with the rats' brain tissue being evaluated to determine the permeabilization by cholinesterase inhibitor dosage concentration, and over time. The increased permeabilization lasted about one hour. […] The “mg/kg” dosage was metered to the weight of each rat being tested, and the μg/mg dry weight measures the Evans Blue in harvested CNS tissue.
Male Sprague-Dawley rats (Harlan, Indianapolis, Ind.) weighing 300-350 g were allowed to acclimate for at least 4 days prior to experimentation. […]
Rats were anesthetized with urethane (1.5 g/kg, IP) and immobilized on a surgical board equipped with a controlled heating pad. Core temperature, measured via rectal probe, was maintained at 37±1° C. […]

SMILES: CCN(C)C(=O)Oc1cccc([C@H](C)N(C)C)c1 [rivastigmine]
- duration of increased permeabilization: about one
